Yeast mating assay B: variants of the scFv Ab-14

Target: peptide PDVDLGDISGINAS, taken from heptad repeat 2 (HR2) of SARS-CoV-2 spike.

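The variants were designed computationally from a first round of random CDR variants and then made and measured. Group labels follow the data file (En: ensemble of fine-tuned language models; HC: hill climbing; Gen: genetic algorithm; Gibbs: Gibbs sampling; a sequence that several methods proposed may carry one label only). In AlphaSeq, yeast of one mating type display the scFv and yeast of the other type display the target. After mating in shaken culture at 30 °C for 16 h, diploids were selected and their barcode pairs sequenced. The ratio of observed to expected reads was calibrated, replicate by replicate, on BCL2-family standards whose Kd was known from biolayer interferometry. Mating was done six times.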

Each scFv is VH, a 15-residue (Gly4Ser)3 linker, VL, as in the parent Ab-14, and differs from it in the CDRs of the heavy chain only.
VH: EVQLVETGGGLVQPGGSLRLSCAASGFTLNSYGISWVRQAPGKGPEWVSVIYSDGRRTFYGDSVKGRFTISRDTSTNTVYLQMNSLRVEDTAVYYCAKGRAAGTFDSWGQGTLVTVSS
VL: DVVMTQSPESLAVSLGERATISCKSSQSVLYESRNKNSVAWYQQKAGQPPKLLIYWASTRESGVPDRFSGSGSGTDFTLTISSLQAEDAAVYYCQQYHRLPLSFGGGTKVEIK

The parent's heavy chain CDRs are GFTLNSYGIS, VIYSDGRRTFYGDSVK, GRAAGTFDS; each variant's own CDRs replace them letter for letter.
Variants here have more than six changes.
Values are apparent Kd, the geometric mean of the replicates that gave a signal; lower means stronger binding.
Where no diploid with the target was found in any replicate, the entry reads "nd": below detection, most likely a poor binder, though not proof of it.
Entries are sorted by rising average, undetected variants last.
A sequence measured in both rounds can read differently, since the two assays cover different ranges.

The variant GFDLDEYGIS, VIYADGKRTAYSDSVK, GEVAGTFDT [En_Gen] gave 130 pM (6 of 6 replicates; controls 0 of 18).
The variant GFDLNEYGIS, VIYADGKRTFYADSVK, GQLAGTFSV [En_HC] gave 140 pM (6 of 6 replicates; controls 0 of 18).
The variant GFDLDEYGIS, VIYADGRRTFYSDSVK, GETAGTFDS [En_HC] gave 160 pM (6 of 6 replicates; controls 0 of 18).
The variant GFDLNEYGIS, VIYADGHRTAYADSVK, GNVAGTFDV [En_Gen] gave 200 pM (6 of 6 replicates; controls 0 of 18).
The variant GFDLNEYGIS, VIYADGRRTFYDDSVK, GNLAGTFDQ [En_HC] gave 220 pM (6 of 6 replicates; controls 0 of 18).
The variant GFDLNEYGIS, VIYADGRRTFYADSVK, GNIAGTFDQ [En_HC] gave 220 pM (6 of 6 replicates; controls 0 of 18).
The variant GFDLNEYGIS, VIYADGKRTAYSDSVK, GNVAGTFDV [En_Gen] gave 230 pM (6 of 6 replicates; controls 0 of 18).
The variant GFDLNEYGIS, VIYADGLRTAYADSVK, GQNAGTFDL [En_HC] gave 260 pM (6 of 6 replicates; controls 0 of 18).
The variant GFDLNEYGIS, VIYADGVRSYYADSVK, GNVAGTFDV [En_Gen] gave 360 pM (6 of 6 replicates; controls 1 of 18).
The variant GFDLNEYGIS, VIYADGKRTAYSDDVK, GNVAGTFDL [En_Gen] gave 410 pM (6 of 6 replicates; controls 0 of 18).
The variant GFDLNEYGIS, VIYADGVRTFYADSVK, GKNAGTFDV [En_HC] gave 420 pM (6 of 6 replicates; controls 0 of 18).
The variant GFDLNEYGIS, VIYADGMRTFYSDSVK, GNNAGTFDV [En_Gen] gave 460 pM (6 of 6 replicates; controls 0 of 18).
The variant GFDLDEYGIS, VIYADGSRTAYADSVK, GNEAGTFDV [En_Gen] gave 460 pM (6 of 6 replicates; controls 0 of 18).
The variant GFDLNEYGIS, VIYADGQRTAYADNVK, GNVAGTFDV [En_Gen] gave 470 pM (6 of 6 replicates; controls 0 of 18).
The variant GFDLNEYGIS, VIYADGMRTAYADNVK, GETAGTFDV [En_Gen] gave 490 pM (6 of 6 replicates; controls 0 of 18).
The variant GFDLNEYGIS, VIYADGVRTAYSDSVK, GSNAGTFDI [En_Gen] gave 560 pM (6 of 6 replicates; controls 1 of 18).
The variant GFNLDEYGIS, VIYADGRRTFYVDSVK, GEVAGTFDF [En_HC] gave 590 pM (6 of 6 replicates; controls 0 of 18).
The variant GFDLDEYGIS, VIYADGRRTAYSDSVK, GEVAGTFDI [En_Gen] gave 670 pM (6 of 6 replicates; controls 0 of 18).
The variant GFDLNEYGIS, VIYADGRRTFYADSVK, GNVGGTFDV [En_HC] gave 670 pM (6 of 6 replicates; controls 1 of 18).
The variant GFDLDEYGIS, VIYADGMRTAYVDSVK, GNVAGTFDT [En_Gen] gave 860 pM (6 of 6 replicates; controls 0 of 18).
The variant GFDLNEYGIS, VIYADGRRTFYSDSVK, GEVAGTFIQ [En_HC] gave 870 pM (6 of 6 replicates; controls 1 of 18).
The variant GFNLNEYGIS, VIYADGRRTQYIDSVK, GNVAGTFDS [En_HC] gave 1.4 nM (6 of 6 replicates; controls 0 of 18).
The variant GFDLDEYGIS, VIYADGLRTAYADDVK, GENAGTFDV [En_Gen] gave 5.8 nM (1 of 6 replicates; controls 0 of 18).
The variant GFDLNEYGIS, VIYADGRRQAYIDSVK, GHVAGTFDV [En_HC] gave 9.3 nM (1 of 6 replicates; controls 0 of 18).
The variant GFDFKEYGIS, VIYADGKRQAYAQSVK, GGKNAFTDV [En_Gibbs] gave nd (0 of 6 replicates; controls 0 of 18).
The variant GMSLDEYGIS, VIYADGKRCAYANTVK, GELAGFFML [En_Gibbs] gave nd (0 of 6 replicates; controls 0 of 18).
The variant GFDINEYGIS, VIYADGRRTFYADSVK, GNQGGTFDL [En_HC] gave nd (0 of 6 replicates; controls 0 of 18).
The variant GFDLGEYGVS, VIYADGRRAQYASKVK, GNFSGNFDK [En_Gibbs] gave nd (0 of 6 replicates; controls 0 of 18).
The variant GKDLDEYGIS, VIYADGARKAYQNYFK, GGQAGTFVN [En_Gibbs] gave nd (0 of 6 replicates; controls 0 of 18).
The variant GFDINEYGVS, VIYADGMRTAYTDSVK, GEGKWINLI [En_Gibbs] gave nd (0 of 6 replicates; controls 0 of 18).
The variant GFNLEEYGIS, VIYADGKRTFYIDAVK, GTWGVFGLG [En_Gibbs] gave nd (0 of 6 replicates; controls 0 of 18).
The variant GFDIDEYGIS, VIYADGHRTQYSEQVK, GVNMGFLVE [En_Gibbs] gave nd (0 of 6 replicates; controls 0 of 18).
The variant GDGLEEYGIS, VIYADGMRESYVDDVK, GQKGGIFNL [En_Gibbs] gave nd (0 of 6 replicates; controls 0 of 18).

Extract of 3 entries:

CDR-H1	CDR-H2	CDR-H3	group	apparent Kd	replicates with signal	empty controls
GFNLEEYGIS	VIYADGKRTFYIDAVK	GTWGVFGLG	En_Gibbs	nd	0/6	0/18
GDGLEEYGIS	VIYADGMRESYVDDVK	GQKGGIFNL	En_Gibbs	nd	0/6	0/18
GFDLNEYGIS	VIYADGMRTFYSDSVK	GNNAGTFDV	En_Gen	460 pM	6/6	0/18

In the paper, a design with two or fewer of six values counts as a poor binder.
Of ten entries with the parent sequence, four were seen in most replicates (averages 2.2 nM to 240 nM), three in one and three in none, so single entries are noisy.
Empty control strains, which show no peptide, gave a signal in 1% of pairings with all heavy chain designs; the median was 120 nM and 95% of these signals were weaker than 7.0 nM. No background was subtracted. Also given: how often the same scFv was detected with the empty control strains.

The measurements come from Li et al. 2023 (doi:10.1038/s41467-023-39022-2) through the FLAb antibody collection.